The record followed here is PMC3081360 (Journal of medicinal chemistry, 2011).

The chains behind the UniProt entries cited, without tags or fusion partners. Where a name states a change or a piece, a line headed by the entry shows the natural chain unless it says otherwise.
UniProt P41146: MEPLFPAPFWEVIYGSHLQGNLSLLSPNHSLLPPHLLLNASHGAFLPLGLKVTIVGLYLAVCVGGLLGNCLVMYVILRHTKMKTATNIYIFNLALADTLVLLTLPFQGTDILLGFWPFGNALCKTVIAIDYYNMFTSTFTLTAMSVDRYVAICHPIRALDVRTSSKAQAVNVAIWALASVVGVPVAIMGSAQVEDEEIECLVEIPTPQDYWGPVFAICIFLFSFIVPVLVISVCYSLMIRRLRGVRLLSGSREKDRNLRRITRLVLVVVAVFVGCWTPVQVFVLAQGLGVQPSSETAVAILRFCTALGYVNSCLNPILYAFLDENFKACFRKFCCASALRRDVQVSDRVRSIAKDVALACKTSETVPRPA

In this experiment the target is cloned human NOP receptors (Homo sapiens, UniProt P41146). Nature of the experiment: [35S]GTPγS binding assay of receptor-mediated G-protein activation. The class given is biochemical.
The molecule `CC(C)N(C)C(=O)[C@H](Cc1ccccc1F)CN1CCC2(CC1)OCCc1cc(F)sc12` [(R)-10a, (2R)-2-[(2-Fluorophenyl)methyl]-3-(2-fluorospiro[4,5-dihydrothieno[2,3-c]pyran-7,4'-piperidine]-1'-yl)-N-isopropyl-N-methyl-propanamide] registered a Kb of 15.8 ± 3.48 nM.
As to `CNC(=O)[C@H](Cc1ccccc1Cl)CN1CCC2(CC1)OCCc1cc(F)sc12` [(R)-10b, (2R)-2-[(2-Chlorophenyl)methyl]-3-(2-fluorospiro[4,5-dihydrothieno[2,3-c]pyran-7,4'-piperidine]-1'-yl)-N-methyl-propanamide], the Kb came out at 5.79 ± 1.05 nM.
As for `CC(C)N(C)C(=O)[C@@H](Cc1ccccc1F)CN1CCC2(CC1)OCCc1cc(F)sc12` [(S)-10a, (2S)-2-[(2-Fluorophenyl)methyl]-3-(2-fluorospiro[4,5-dihydrothieno[2,3-c]pyran-7,4'-piperidine]-1'-yl)-N-isopropyl-N-methyl-propanamide], the Kb came to 0.141 ± 0.032 nM.
As to `CNC(=O)[C@@H](Cc1ccccc1Cl)CN1CCC2(CC1)OCCc1cc(F)sc12` [(S)-10b, (2S)-2-[(2-Chlorophenyl)methyl]-3-(2-fluorospiro[4,5-dihydrothieno[2,3-c]pyran-7,4'-piperidine]-1'-yl)-N-methyl-propanamide], the Kb is 0.099 ± 0.048 nM.
